# Values quoted from earlier work in patent publication US20120058112A1, “ANTIBODIES” (priority 2009, published 2012).
# Test system: gefitinib-resistant (GR) human squamous carcinoma A431 cells
# Conditions: cited from earlier work
smiles,measurement,value
COc1cc2ncnc(Nc3ccc(F)c(Cl)c3)c2cc1OCCCN1CCOCC1 [gefitinib],phosphorylation levels of Akt,but not those of Akt
same,"phosphorylation levels of EGFR, ErbB3, and Erk",reduced
